The results in this text go back to US8278066B2, “Truncated somatostatin receptors” (Board of Regents, The University of Texas System, priority 2001, dated 2012).

Amino acid sequences for entries named in this document (tags omitted). Residues count along the entry.
UniProt P30874, 1-314, stated change not applied: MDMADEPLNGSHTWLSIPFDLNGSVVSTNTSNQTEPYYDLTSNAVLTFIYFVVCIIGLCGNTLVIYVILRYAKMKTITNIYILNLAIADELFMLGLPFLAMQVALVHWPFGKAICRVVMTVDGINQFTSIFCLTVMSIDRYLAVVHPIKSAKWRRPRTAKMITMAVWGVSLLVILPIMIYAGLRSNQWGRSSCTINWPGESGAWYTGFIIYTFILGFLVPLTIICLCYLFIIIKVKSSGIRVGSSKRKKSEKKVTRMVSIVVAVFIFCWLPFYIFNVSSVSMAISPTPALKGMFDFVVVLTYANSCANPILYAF

The target of data set [1] is tumors derived from clones expressing full length SSTR2A fusion protein (Homo sapiens, UniProt P30874). As to conditions: mouse, in vivo.
Data set [2] has as its target tumors derived from clones tail-4 and tail-1 (C-terminus cytoplasmic domain deleted) (Homo sapiens, UniProt P30874). Kind of data set: Biodistribution, tumors from tail minus clones. As to conditions: 24 hours.
The conditions of data set [3]: doses of radiotracer similar to those used in humans.

In the case of ^111In-octreotide, in data set [1], the “radioactivity/gram in tumors, order” value was “greatest radioactivity/gram was in tumors derived from clone 21, followed by clone 3, clone 11” and the “uptake of radiotracer/gram, clone 11 tumors versus vector tumors” value is given as “more uptake of radiotracer/gram than tumors derived from cells transfected with vector only”. The “biodistribution in tumors, tail-4 versus clone 21” value in data set [2] (similar expression levels and receptor binding) was “greater biodistribution is seen in tumors derived from tail-4 than clone 21”. Further, in data set [2] (similar receptor expression and ligand binding), the “radiotracer uptake in tumors, tail-1 versus clone 11” value is “greater radiotracer uptake was seen in tumors derived from clone tail-1 than clone 11”. In data set [3], the “Radioactivity per gram in organs, order” value was “greatest in the kidneys, followed by the liver, gastrointestinal tract, lungs and spleen”; the “blood and muscle uptake per gram” value is on record as “quite low”.
